# Apparent affinities of Ab-14 variants for a coronavirus HR2 peptide

Values reported by Li et al. 2023, doi:10.1038/s41467-023-39022-2 (FLAb copy).

Target: peptide PDVDLGDISGINAS, taken from heptad repeat 2 (HR2) of SARS-CoV-2 spike.

Each scFv is VH, a (GGGGS)3 linker, VL, as in the parent Ab-14, and differs from it in the CDRs of the light chain only.
VH: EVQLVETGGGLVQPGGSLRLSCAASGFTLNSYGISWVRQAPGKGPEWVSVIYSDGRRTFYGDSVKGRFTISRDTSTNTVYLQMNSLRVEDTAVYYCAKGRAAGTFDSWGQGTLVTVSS
VL: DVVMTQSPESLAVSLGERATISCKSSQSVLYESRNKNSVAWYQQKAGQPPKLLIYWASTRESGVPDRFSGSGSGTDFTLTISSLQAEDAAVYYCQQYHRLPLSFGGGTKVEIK

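The parent was found by panning a naive human phage display library on the peptide. The variants were designed computationally from a first round of random CDR variants and then made and measured. Group labels follow the data file (En: ensemble of fine-tuned language models; GP: Gaussian process model; HC: hill climbing; Gen: genetic algorithm; Gibbs: Gibbs sampling; a sequence that several methods proposed may carry one label only). In AlphaSeq, yeast of one mating type display the scFv and yeast of the other type display the target. The frequency of each diploid, read from paired DNA barcodes, reflects how well the two displayed proteins bind. A regression on co-assayed BCL2-family reference pairs converts the normalised counts of each replicate to an apparent Kd. Mating was done six times.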

The parent's light chain CDRs are KSSQSVLYESRNKNSVA, WASTRES, QQYHRLPLS; each variant's own CDRs replace them letter for letter. This list holds designs with more than six substitutions. Kd is apparent (estimated from mating counts) and averaged on the log scale over replicates with a signal. Smaller is tighter. A pair that was not seen in any replicate is written "nd"; this usually means weak binding, but a binder can also be missed. The authors' rule: three or more of the six replicates give a measured affinity, fewer mean a poor binder.

For NLSWKSIGFENEWMAIA / NTSERNA / QQYARLPLS [En_Gibbs], the assay gave 13 nM (6 of 6 replicates; controls 2 of 18). Variant RFSYEYEMVNTAKESIA / NAHTVQM / QQYSRLPLA [En_Gibbs] gave 7.7 nM (6 of 6 replicates; controls 0 of 18). With KVDQDWDYESRNKNSVA / NASTRER / QQYHRLPLS [GP_Gibbs] the result was 760 pM (6 of 6 replicates; controls 3 of 18). For KSSPSQLYEDREFNSVA / NASYRES / QQYHRLPLS [GP_Gibbs], the assay gave 3.0 nM (6 of 6 replicates; controls 2 of 18). Variant QMYPFEVAKGEGRNNVA / HVSVRAL / QQYFRLPLV [En_Gibbs] showed 15 nM (1 of 6 replicates; controls 0 of 18). Variant MISQVLNTLYATGNNVA / DLQEREE / QQYFRLPLS [En_Gen] showed nd (0 of 6 replicates; controls 0 of 18). Variant KLYGSVLYESRNKNAVA / GASQREK / QQYHRLPLS [GP_Gibbs] gave 580 pM (6 of 6 replicates; controls 0 of 18). Variant KIGMTLNQLLHQKNNVA / DLVTREN / QQYHRLPLS [En_Gen] gave 4.0 nM (6 of 6 replicates; controls 0 of 18).

Variant KLSMSMLMESRHKNSVA / ENSTRES / QHYHRLPLS [En_HC] showed 180 nM (5 of 6 replicates; controls 0 of 18). With MIHESYGLMSHKQSSIA / DNSTRED / QQYDRLPLS [En_Gen] the result was 250 nM (1 of 6 replicates; controls 2 of 18). With KMTKAEQSIGSHQANIA / DSNKITD / QQYYRLPLT [En_Gibbs] the result was 9.4 nM (5 of 6 replicates; controls 0 of 18). For MVTQMAMTGMKNKRSVA / NATTRES / QQYHRLPLI [En_Gen], the assay gave 4.8 nM (6 of 6 replicates; controls 0 of 18). Variant TLYGLSNSMSKNKNSVA / EMTTREK / QQYDRLPLI [En_Gen] gave 14 nM (6 of 6 replicates; controls 0 of 18). Variant MISQLYNMGQFAINSVA / QAQVRNE / QQYDRLPLI [En_Gen] gave 120 nM (6 of 6 replicates; controls 2 of 18). Variant KLSQSAPYEDRCFNSVA / HASQRES / QQYHRLPLS [GP_Gibbs] gave 12 nM (6 of 6 replicates; controls 2 of 18). Variant IVSQSVMGETRNKNSVA / QTSERNY / QQYDRLPLS [En_HC] gave 6.6 nM (6 of 6 replicates; controls 2 of 18).

With HVELGVGGVQKYDSSVA / HASQRQE / QQYYQLPLT [En_Gibbs] the result was 2.7 nM (6 of 6 replicates; controls 0 of 18). With TISDVMGHMSRAHNNVA / DMDTRGE / QQYNRLPLS [En_Gen] the result was 710 pM (6 of 6 replicates; controls 1 of 18). With SIRQVTDDYQATHDAIA / DASQIEP / QQYSILPLS [En_Gibbs] the result was nd (0 of 6 replicates; controls 0 of 18). With KLSGLMQSSKFAKDNVA / ENNTREQ / QQYDRLPLS [En_Gen] the result was 110 nM (6 of 6 replicates; controls 2 of 18). Variant KITFQGMSSDAHQYSIA / QTNVYSQ / QQYNRLPLD [En_Gibbs] gave nd (0 of 6 replicates; controls 0 of 18). Variant KLSITHQVESINKSNVA / EMVNRES / QQYDRLPLS [En_HC] showed 37 nM (6 of 6 replicates; controls 1 of 18). For NMRLNEGEIAQHGYNIA / GVDLRAA / QQYARLPLH [En_Gibbs], the assay gave 4.2 nM (6 of 6 replicates; controls 2 of 18). Variant KMPQSWLYESQNSNSVA / HASQRMS / QQYHRLPLS [GP_Gibbs] gave 580 pM (6 of 6 replicates; controls 1 of 18).

For KLGATYEGEKRNRQSVA / HNSMREN / QQYDRLPLI [En_Gen], the assay gave 37 nM (6 of 6 replicates; controls 5 of 18). With FLHGQLEGGQKNWSAIA / ENSIRVN / QQYNHLPLL [En_Gibbs] the result was 65 nM (6 of 6 replicates; controls 2 of 18). Variant MMSQVQGMGTRHRNNVA / QTSTREE / QQYDRLPLV [En_Gen] gave 5.3 nM (6 of 6 replicates; controls 1 of 18). Variant KFGQGVHLESIMKNSIA / QTSTREE / QQYDRLPLS [En_HC] gave 11 nM (6 of 6 replicates; controls 1 of 18). Variant LIKGMVDGQYYKQNNIA / DSEERDR / QQYNQLPLS [En_Gibbs] showed 2.3 nM (6 of 6 replicates; controls 1 of 18). For NFSQMVSSGMTLRNSVA / HASTRFN / QQYHRLPLI [En_HC], the assay gave 54 nM (3 of 6 replicates; controls 1 of 18). For MVSQLMLWGHLAKNSIA / EAQMRLN / QQYDRLPLI [En_Gen], the assay gave 2.7 nM (3 of 6 replicates; controls 0 of 18). With TIAGVMNTSSHSKNNVA / EVSTRLD / QQYFRLPLE [En_Gen] the result was 3.8 nM (6 of 6 replicates; controls 1 of 18).

For KFSYVYEMVNTAKESIA / DAHTVQM / QQYSRLPLA [En_Gibbs], the assay gave 6.8 nM (6 of 6 replicates; controls 0 of 18). For SISGFMKSLAAHHNSVA / DMTNRES / QQYDRLPLS [En_Gen], the assay gave 1.7 nM (6 of 6 replicates; controls 0 of 18). With NLKENNVDNQTFYSNIA / EADQREL / QQYYRLPLQ [En_Gibbs] the result was 180 nM (6 of 6 replicates; controls 1 of 18). With QLGKQAQGLGVSNNNVA / NEDVKDA / QQYMRLPLI [En_Gibbs] the result was 2.7 nM (6 of 6 replicates; controls 1 of 18). Variant MLSSVLHMLGVKQNSIA / DLVLRAN / QQYARLPLM [En_Gen] gave nd (0 of 6 replicates; controls 0 of 18). Variant TLVQSVMGSSRTKNSVA / NAETRES / QHYHRLPLS [En_HC] gave 130 nM (6 of 6 replicates; controls 1 of 18). For MISQLYNMGQFAINSVA / QASERNE / QQYDRLPLM [En_Gen], the assay gave 250 nM (2 of 6 replicates; controls 1 of 18). Variant NMQMDNDRMNDAEKAIA / DVIMRET / QQYNRLPLM [En_Gibbs] showed 11 nM (6 of 6 replicates; controls 2 of 18).

Variant TIGQSAHETSRNKNSVA / HASTRED / QQYDRLPLS [En_HC] showed 1.9 nM (6 of 6 replicates; controls 2 of 18). For RLTNEFFKVSEHKNSVA / HADQRCM / QQYFTLPLI [En_Gibbs], the assay gave 10 nM (6 of 6 replicates; controls 0 of 18). Variant TLGDVTRMESNKKKSIA / DMSNRAD / QQYHRLPLS [En_HC] showed 7.1 nM (6 of 6 replicates; controls 1 of 18). For KISQAVNYLSRVMNNVA / DNSTRGS / QQYFRLPLS [En_HC], the assay gave 2.3 nM (6 of 6 replicates; controls 1 of 18). Variant TISQMSTLFSQSINNVA / EVSTRLN / QQYDRLPLA [En_Gen] gave 34 nM (6 of 6 replicates; controls 0 of 18). With KLGQMTGIETHNKNSLA / DANRRES / QQYHRLPLS [En_HC] the result was 3.5 nM (6 of 6 replicates; controls 0 of 18). Variant KSSQSEYYEDANKMSVA / SASQRLS / QQYHRLPLS [GP_Gibbs] showed 990 pM (6 of 6 replicates; controls 2 of 18). Variant KIEQILFPYGPSWHSVA / NANTLLA / QQYYMLPLM [En_Gibbs] showed 19 nM (6 of 6 replicates; controls 0 of 18).

Variant SFPSEMDQQQFQVNSVA / GEQHTAR / QQYGRLPLS [En_Gibbs] showed nd (0 of 6 replicates; controls 0 of 18).

A selection of 8 entries from above:

CDR-L1	CDR-L2	CDR-L3	group	apparent Kd	replicates with signal	control signals
TLYGLSNSMSKNKNSVA	EMTTREK	QQYDRLPLI	En_Gen	14 nM	6/6	0/18
MISQLYNMGQFAINSVA	QAQVRNE	QQYDRLPLI	En_Gen	120 nM	6/6	2/18
SFPSEMDQQQFQVNSVA	GEQHTAR	QQYGRLPLS	En_Gibbs	nd	0/6	0/18
RLTNEFFKVSEHKNSVA	HADQRCM	QQYFTLPLI	En_Gibbs	10 nM	6/6	0/18
MIHESYGLMSHKQSSIA	DNSTRED	QQYDRLPLS	En_Gen	250 nM	1/6	2/18
MMSQVQGMGTRHRNNVA	QTSTREE	QQYDRLPLV	En_Gen	5.3 nM	6/6	1/18
RFSYEYEMVNTAKESIA	NAHTVQM	QQYSRLPLA	En_Gibbs	7.7 nM	6/6	0/18
KMTKAEQSIGSHQANIA	DSNKITD	QQYYRLPLT	En_Gibbs	9.4 nM	5/6	0/18

A sequence measured in both rounds can read differently, since the two assays cover different ranges. Nonspecific signal, from three strains lacking the peptide, appeared in 4% of pairings of all light chain designs, centred on 430 nM (5% of these signals below 38 nM); values are not corrected for it. Also given: how often the same scFv was detected with the empty control strains. Of ten entries with the parent sequence, four were seen in most replicates (averages 2.2 nM to 240 nM), three in one and three in none, so single entries are noisy.